# In US6448377B1, “Modified G protein sunbunits” (The Board of Trustees of the Leland Stanford Junior …, priority 2000, dated 2002):
# B1: Gsα: α subunit of the stimulatory G-protein, wild-type (protein, UniProt P63092 2-394, looked up)
# Guanine nucleotide-binding …: GCLGNSKTEDQRNEEKAQREANKKIEKQLQKDKQVYRATHRLLLLGAGESGKSTIVKQMRILHVNGFNGEGGEEDPQAARSNSDGEKATKVQDIKNNLKEAIETIVAAMSNLVPPVELANPENQFRVDYILSVMNVPDFDFPPEFYEHAKALWEDEGVRACYERSNEYQLIDCAQYFLDKIDVIKQADYVPSDQDLLRCRVLTSGIFETKFQVDKVNFHMFDVGGQRDERRKWIQCFNDVTAIIFVVASSSYNMVIREDNQTNRLQEALNLFKSIWNNRWLRTISVILFLNKQDLLAEKVLAGKSKIEDYFPEFARYTTPEDATPEPGEDPRVTRAKYFIRDEFLRISTASGDGRHYCYPHFTCAVDTENIRRVFNDCRDIIQRMHLRQYELL
# What was measured:
# [1] = target: β2 adrenoceptor, tagged at the amino-terminus with the FLAG epitope (UniProt P07550); assay: cell-based or functional assay
# β2 adrenoceptor = target: T1, β2 adrenoceptor (Homo sapiens, UniProt P07550); assay: [3H]DHA competition binding with isoproterenol in Sf9 membranes coexpressing β2 adrenoceptor and Gsα or tetGsα; settings: isoproterenol competition with 1 nM [3H]DHA, without or with 10 μM GTPγS
# T1 construct: expressed in transfected cells; host or cells: Sf9 insect cells (baculovirus infection), membrane preparation
# Protocol: Competition binding of [^3H]DHA (1 nM) with varying concentrations of isoproterenol in Sf9 membranes coexpressing β2 AR and either wild-type Gsα (FIG. 2) or tetGsα (FIG. 3). Membrane proteins (15-20 μg/tube) from infected Sf9 insect cells were suspended in 500 μL of binding buffer (75 mM Tris/HCl, pH 7.4, 12.5 mM MgCl2, and 1 mM EDTA), supplemented with 10 nM [^3H]DHA and 0.2% (w/v) BSA to determine β2 adrenoceptor expression level. Nonspecific binding was assessed in the presence of 10 μM (−)-alprenolol. Incubations were performed for 60 min at 25° C. with shaking at 200 rpm. Competition binding experiments were carried out with 1 nM [^3H]DHA in the presence of isoproterenol at various concentrations without or with GTPγS (10 μM) as described elsewhere (Seifert, R. et al., (1998) J. Biol. Chem. 273: 5109-16; Seifert, R. et al., (1998) Eur. J. Biochem. 255: 369-382). Expression levels of β2 adrenoceptor in FIGS. 2 and 3 are 7.4 and 4.8 pmol/mg, respectively. Data are expressed as percent of basal bound [^3H]DHA. Data shown are the mean ±SD of three independent experiments performed in triplicate.
# β2 AR = target: T2, β2 AR (Homo sapiens, UniProt P07550); assay: [35S]GTPγS binding in membranes coexpressing β2 AR and Gsα or tetGsα; assay type: biochemical; settings: large excess of Gsα
# T2 construct: expressed in transfected cells; host or cells: Sf9 insect cells (baculovirus infection), membrane preparation
# Protocol: Membranes were pelleted by a 15 min centrifugation at 4 C. and 15000 g and resuspended in binding buffer. Sf9 membranes (10 μg of protein/tube) were suspended in 500 μL of binding buffer supplemented with 0.05% (w/v) BSA, 1 nM [^35S]GTPγS (0.25 uCi/tube), GDP (1 μM) with or without isoproterenol (10 μM). Incubations were performed at 25 C. and shaking at 200 rpm. Nonspecific binding was determined in the presence of 10 μM GTPγS and was less than 0.2% of total binding. Bound [^35S]-GTPγS was separated from free [^35S]GTPγS by filtration through GF/C filters, followed by three washes with 3 mL of cold binding buffer. Filter-bound radioactivity was determined by liquid scintillation counting.
Molecule,GTPγS-sensitive high-affinity agonist binding sites [1] [%],GTPγS-sensitive high-affinity agonist binding sites for the β2 AR (β2 adrenoceptor),β2 adrenoceptor-stimulated GTPγS binding (β2 AR)
wild-type Gsα (α subunit of the stimulatory G-protein),30,–,–
B1,–,Approximately 30%,very little
